Laboratory results taken from ChEMBL document CHEMBL2069252, “Pyrazole diaminopyrimidines as dual inhibitors of KDR and Aurora B kinases” (Bioorg Med Chem Lett, 2012).

Chains of the proteins cited; added tags and fusions are not shown.
UniProt P35968, whole entry: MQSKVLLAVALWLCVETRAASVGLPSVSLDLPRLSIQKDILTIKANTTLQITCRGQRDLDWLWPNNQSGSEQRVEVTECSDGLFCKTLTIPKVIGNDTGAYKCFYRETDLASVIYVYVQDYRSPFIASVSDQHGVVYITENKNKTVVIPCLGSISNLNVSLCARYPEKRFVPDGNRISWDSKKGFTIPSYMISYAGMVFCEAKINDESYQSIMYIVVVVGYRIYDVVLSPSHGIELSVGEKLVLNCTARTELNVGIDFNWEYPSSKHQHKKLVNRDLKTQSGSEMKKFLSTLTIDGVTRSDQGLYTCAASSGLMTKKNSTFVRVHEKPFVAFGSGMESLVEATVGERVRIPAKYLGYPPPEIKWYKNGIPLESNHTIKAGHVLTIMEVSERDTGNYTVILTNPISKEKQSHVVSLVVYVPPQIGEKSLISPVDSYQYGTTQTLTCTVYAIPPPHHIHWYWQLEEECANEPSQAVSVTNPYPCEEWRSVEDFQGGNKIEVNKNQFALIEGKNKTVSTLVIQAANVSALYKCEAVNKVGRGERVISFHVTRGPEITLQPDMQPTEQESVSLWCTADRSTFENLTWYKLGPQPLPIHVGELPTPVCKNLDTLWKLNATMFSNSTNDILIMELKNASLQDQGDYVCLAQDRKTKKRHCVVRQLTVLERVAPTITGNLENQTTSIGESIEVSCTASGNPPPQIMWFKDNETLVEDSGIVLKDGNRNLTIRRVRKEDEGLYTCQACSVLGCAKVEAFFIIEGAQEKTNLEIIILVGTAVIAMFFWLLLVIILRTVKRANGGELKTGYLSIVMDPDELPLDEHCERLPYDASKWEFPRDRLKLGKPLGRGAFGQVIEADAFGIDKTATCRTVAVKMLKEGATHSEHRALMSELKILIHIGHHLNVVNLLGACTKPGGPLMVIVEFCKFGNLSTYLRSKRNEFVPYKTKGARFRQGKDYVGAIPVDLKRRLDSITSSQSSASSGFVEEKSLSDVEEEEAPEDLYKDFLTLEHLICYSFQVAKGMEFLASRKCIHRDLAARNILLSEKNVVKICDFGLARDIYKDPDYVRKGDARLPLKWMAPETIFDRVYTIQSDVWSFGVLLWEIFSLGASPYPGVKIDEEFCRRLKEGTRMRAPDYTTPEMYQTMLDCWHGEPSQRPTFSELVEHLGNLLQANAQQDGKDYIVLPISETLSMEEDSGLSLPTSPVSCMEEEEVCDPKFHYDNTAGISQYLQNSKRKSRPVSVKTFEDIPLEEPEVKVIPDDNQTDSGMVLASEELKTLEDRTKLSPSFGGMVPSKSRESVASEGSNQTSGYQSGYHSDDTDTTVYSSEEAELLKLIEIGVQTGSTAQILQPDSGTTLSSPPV

How the values were obtained:
[1] = biological target: T1, Vascular endothelial growth factor receptor 2 (Homo sapiens, UniProt P35968); test: Inhibition of KDR by HTRF analysis in presence of 1 mM ATP
[2] = biological target: T1, Vascular endothelial growth factor receptor 2; test: Inhibition of human KDR autophosphorylation expressed in mouse NIH/3T3 cells; assay type: cell-based, NIH3T3
[3] = biological target: T1, Vascular endothelial growth factor receptor 2; test: Inhibition of KDR by TR-FRET analysis

With `Cn1cc(Nc2ncc(Br)c(N[C@H]3[C@@H](C(N)=O)[C@@H]4C=C[C@H]3C4)n2)cn1` the IC50 [1] was 13 nM, the IC50 [2] was 9 nM and the IC50 [3] was 6 nM.
